Laboratory results from ChEMBL document CHEMBL5212743, “Selectivity Literature for EUbOPEN Chemogenomics Library wave 3” (2023).

Sequences of proteins named here, by UniProt entry; tags and fusion partners are left off. A change or cut given only in a name is not applied to a line headed by its entry.
UniProt P21918, whole entry: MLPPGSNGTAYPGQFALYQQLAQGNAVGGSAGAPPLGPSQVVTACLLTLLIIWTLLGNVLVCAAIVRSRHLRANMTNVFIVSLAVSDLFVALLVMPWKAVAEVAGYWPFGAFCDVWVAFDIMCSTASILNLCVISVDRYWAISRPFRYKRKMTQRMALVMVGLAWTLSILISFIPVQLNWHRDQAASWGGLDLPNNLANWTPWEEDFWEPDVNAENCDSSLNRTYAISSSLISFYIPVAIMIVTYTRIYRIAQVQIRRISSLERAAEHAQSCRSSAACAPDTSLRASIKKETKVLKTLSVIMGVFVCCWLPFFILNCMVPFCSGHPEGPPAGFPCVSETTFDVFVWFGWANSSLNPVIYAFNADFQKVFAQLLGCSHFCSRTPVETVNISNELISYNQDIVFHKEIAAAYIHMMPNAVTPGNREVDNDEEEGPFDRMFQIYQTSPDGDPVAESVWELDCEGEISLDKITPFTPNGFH
UniProt O75676: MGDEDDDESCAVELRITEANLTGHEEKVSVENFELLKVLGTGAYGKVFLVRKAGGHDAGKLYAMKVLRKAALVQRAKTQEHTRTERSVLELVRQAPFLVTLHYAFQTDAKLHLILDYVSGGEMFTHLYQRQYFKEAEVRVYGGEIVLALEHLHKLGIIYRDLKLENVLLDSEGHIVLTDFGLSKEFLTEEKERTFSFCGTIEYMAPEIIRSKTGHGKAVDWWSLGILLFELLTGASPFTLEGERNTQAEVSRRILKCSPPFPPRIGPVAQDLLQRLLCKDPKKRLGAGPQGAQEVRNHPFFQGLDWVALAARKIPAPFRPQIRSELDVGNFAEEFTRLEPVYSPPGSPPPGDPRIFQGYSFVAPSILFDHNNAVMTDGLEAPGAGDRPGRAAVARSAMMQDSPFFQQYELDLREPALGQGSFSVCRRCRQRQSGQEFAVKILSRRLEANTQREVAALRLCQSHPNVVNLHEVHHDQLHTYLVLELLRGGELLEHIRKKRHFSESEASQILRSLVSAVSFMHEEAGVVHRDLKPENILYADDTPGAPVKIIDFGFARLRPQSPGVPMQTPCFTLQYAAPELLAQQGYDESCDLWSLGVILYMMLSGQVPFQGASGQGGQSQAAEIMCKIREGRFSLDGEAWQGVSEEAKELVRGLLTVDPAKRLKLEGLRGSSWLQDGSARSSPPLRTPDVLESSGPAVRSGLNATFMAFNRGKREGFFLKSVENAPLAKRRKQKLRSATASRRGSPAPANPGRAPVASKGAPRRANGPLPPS
UniProt P41743, whole entry: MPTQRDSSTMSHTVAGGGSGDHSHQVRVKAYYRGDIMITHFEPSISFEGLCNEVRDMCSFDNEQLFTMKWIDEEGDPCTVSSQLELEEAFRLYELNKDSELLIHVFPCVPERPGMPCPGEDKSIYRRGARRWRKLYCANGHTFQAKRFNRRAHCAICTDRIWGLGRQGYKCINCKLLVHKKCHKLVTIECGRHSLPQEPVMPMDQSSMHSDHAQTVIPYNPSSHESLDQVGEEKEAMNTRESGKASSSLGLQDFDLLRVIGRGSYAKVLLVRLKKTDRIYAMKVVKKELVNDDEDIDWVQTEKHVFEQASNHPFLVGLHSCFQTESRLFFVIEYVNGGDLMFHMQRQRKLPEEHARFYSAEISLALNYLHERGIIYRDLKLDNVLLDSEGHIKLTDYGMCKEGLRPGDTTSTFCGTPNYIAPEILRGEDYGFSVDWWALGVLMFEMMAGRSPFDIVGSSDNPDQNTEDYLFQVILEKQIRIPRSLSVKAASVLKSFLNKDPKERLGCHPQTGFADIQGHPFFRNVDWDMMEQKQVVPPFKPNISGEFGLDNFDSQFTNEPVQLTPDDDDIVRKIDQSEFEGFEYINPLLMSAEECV
UniProt Q9NRH2: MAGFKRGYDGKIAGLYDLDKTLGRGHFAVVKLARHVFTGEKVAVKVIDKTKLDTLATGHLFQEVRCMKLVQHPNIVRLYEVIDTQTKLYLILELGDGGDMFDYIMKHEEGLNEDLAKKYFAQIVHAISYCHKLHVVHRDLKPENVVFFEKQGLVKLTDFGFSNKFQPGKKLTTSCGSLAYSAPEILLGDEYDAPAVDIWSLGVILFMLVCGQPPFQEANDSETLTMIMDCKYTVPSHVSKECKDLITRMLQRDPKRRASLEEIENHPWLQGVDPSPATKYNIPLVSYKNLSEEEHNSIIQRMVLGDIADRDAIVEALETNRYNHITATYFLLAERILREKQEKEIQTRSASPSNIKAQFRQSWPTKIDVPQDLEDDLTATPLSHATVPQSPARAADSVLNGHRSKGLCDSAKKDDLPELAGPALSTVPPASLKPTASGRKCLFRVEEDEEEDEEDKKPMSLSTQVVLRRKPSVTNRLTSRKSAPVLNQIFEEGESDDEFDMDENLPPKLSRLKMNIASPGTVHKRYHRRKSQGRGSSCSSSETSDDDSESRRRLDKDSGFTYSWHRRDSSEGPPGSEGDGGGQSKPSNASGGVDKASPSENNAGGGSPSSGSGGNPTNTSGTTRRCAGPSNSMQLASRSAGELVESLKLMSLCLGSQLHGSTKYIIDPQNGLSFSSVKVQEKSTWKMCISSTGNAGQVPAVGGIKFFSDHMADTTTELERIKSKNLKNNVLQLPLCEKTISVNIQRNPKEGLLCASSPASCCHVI
UniProt Q9UK32, whole entry: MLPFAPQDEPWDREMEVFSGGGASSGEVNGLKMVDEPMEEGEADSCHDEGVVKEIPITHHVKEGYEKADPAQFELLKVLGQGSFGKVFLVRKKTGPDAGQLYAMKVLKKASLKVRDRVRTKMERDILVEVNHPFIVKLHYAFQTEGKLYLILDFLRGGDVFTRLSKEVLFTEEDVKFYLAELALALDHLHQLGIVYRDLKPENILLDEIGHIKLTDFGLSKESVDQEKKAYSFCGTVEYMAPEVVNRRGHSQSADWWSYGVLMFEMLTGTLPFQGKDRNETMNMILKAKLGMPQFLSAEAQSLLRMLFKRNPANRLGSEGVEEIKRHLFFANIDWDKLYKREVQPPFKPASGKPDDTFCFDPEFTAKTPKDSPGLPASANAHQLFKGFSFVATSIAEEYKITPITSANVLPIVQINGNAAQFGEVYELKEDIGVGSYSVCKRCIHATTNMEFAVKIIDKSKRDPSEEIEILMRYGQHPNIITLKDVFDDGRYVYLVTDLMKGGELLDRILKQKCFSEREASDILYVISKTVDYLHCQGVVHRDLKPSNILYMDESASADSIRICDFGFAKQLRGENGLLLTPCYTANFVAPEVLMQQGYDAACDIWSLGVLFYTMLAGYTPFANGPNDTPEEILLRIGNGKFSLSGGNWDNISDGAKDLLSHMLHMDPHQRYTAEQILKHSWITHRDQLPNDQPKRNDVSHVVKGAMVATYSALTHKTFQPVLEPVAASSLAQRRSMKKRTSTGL
UniProt O94804: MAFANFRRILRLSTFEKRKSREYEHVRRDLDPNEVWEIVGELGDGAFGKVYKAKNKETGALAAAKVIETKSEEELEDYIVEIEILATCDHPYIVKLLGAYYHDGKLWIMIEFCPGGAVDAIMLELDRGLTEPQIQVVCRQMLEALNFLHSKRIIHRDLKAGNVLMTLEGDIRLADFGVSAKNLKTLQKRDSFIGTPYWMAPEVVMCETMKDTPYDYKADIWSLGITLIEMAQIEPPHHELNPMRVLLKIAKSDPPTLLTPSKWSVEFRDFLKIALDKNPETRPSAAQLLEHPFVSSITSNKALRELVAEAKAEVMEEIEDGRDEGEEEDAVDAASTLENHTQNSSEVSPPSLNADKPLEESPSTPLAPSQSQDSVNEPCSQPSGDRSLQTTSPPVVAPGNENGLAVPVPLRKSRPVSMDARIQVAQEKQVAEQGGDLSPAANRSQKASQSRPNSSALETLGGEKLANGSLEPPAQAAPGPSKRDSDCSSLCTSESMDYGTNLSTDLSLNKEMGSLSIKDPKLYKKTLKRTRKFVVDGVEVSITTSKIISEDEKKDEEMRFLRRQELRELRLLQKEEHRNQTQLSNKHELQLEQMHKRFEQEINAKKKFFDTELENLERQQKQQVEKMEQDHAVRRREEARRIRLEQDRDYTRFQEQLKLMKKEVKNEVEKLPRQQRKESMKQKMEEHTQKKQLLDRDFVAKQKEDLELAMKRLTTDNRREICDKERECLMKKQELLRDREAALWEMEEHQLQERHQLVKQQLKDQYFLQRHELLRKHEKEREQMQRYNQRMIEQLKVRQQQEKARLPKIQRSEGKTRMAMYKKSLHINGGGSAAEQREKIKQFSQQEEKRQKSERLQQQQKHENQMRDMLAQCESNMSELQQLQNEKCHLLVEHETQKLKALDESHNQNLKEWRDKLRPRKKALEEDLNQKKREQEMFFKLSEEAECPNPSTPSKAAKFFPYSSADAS
UniProt Q16288, whole entry, looked up: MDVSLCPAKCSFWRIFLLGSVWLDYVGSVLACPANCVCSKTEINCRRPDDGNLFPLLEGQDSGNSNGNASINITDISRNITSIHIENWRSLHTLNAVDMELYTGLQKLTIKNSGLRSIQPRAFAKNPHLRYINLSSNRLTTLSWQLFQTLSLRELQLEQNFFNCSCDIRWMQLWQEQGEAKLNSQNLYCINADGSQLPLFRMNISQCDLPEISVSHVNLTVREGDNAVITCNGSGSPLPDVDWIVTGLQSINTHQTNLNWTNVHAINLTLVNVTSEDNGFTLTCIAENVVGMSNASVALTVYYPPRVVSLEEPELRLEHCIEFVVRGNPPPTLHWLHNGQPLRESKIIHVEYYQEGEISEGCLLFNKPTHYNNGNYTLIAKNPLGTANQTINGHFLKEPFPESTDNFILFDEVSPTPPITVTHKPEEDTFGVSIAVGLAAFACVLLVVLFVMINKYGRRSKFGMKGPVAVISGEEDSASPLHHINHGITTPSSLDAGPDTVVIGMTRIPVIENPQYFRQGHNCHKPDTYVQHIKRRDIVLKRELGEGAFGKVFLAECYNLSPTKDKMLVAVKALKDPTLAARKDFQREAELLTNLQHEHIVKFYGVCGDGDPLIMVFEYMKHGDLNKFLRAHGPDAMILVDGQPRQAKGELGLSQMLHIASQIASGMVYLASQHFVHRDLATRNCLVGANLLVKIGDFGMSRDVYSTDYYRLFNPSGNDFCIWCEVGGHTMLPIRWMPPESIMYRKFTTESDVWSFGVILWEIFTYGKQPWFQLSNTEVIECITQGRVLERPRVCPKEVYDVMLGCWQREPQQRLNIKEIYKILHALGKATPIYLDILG
UniProt O14976: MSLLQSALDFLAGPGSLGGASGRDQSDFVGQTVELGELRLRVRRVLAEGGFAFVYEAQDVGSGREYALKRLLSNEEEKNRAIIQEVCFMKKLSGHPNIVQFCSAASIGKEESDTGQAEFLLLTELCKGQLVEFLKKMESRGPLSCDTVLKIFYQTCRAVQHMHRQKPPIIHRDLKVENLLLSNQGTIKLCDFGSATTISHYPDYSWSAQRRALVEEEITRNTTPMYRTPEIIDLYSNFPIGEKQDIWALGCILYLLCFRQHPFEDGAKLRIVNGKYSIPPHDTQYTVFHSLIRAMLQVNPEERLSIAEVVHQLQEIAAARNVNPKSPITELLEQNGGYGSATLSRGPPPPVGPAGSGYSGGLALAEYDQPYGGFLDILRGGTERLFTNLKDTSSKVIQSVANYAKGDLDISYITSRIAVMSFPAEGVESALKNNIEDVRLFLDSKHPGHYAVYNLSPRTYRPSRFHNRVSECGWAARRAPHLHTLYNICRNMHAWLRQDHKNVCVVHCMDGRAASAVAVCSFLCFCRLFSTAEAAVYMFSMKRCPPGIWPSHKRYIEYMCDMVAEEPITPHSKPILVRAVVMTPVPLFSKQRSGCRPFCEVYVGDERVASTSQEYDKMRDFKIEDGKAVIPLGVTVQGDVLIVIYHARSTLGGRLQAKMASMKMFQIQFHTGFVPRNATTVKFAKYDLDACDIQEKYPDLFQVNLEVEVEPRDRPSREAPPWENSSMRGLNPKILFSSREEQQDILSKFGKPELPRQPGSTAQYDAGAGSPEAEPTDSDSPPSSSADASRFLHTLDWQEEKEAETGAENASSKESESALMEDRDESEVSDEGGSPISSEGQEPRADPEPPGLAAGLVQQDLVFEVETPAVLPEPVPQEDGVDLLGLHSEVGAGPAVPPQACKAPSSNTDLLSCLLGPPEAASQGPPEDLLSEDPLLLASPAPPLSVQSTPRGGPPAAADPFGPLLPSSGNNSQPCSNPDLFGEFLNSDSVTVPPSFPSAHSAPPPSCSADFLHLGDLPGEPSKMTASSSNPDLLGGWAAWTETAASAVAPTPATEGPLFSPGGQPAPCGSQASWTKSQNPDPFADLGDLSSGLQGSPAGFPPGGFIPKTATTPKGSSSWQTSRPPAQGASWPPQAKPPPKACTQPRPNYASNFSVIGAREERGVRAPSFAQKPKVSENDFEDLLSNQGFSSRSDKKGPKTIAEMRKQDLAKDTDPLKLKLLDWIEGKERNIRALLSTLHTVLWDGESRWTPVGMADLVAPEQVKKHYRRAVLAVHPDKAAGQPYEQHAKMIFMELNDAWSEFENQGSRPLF

Key:
[1] = biological target: D(1B) dopamine receptor (Homo sapiens, UniProt P21918); conditions: at 10 µM
[2] = biological target: Serine/threonine-protein kinase Nek3 (Homo sapiens) (UniProt P51956); conditions: at 1 µM
[3] = biological target: Phosphatidylinositol 4,5-bisphosphate 3-kinase catalytic subunit delta isoform (Homo sapiens) (UniProt O00329); conditions: at 1 µM
[4] = biological target: Ribosomal protein S6 kinase alpha-4 (Homo sapiens) (UniProt O75676); conditions: at 1 µM
[5] = biological target: Protein kinase C iota type (Homo sapiens) (UniProt P41743); conditions: at 1 µM
[6] = biological target: SNF-related serine/threonine-protein kinase (Homo sapiens) (UniProt Q9NRH2); conditions: at 1 µM
[7] = biological target: Phosphatidylinositol 4-phosphate 5-kinase type-1 alpha (Homo sapiens) (UniProt Q99755); conditions: at 1 µM
[8] = biological target: TGF-beta receptor type-1 (Homo sapiens) (UniProt P36897); conditions: at 10 µM
[9] = biological target: T1, Tyrosine-protein kinase Blk (Homo sapiens, UniProt P51451); conditions: at 10 µM
[10] = biological target: Phosphatidylinositol 4,5-bisphosphate 3-kinase catalytic subunit beta isoform (Homo sapiens) (UniProt P42338); conditions: at 10 µM
[11] = biological target: Serine/threonine-protein kinase PLK1 (Homo sapiens, UniProt P53350); conditions: at 10 µM
[12] = biological target: T2, Leucine-rich repeat serine/threonine-protein kinase 2 (Homo sapiens, UniProt Q5S007); conditions: at 500 nM
[13] = biological target: Ribosomal protein S6 kinase alpha-1 (Homo sapiens) (UniProt Q15418); conditions: at 500 nM
[14] = biological target: Mitogen-activated protein kinase kinase kinase 11 (Homo sapiens) (UniProt Q16584); conditions: at 500 nM
[15] = biological target: Protein kinase C beta type (Homo sapiens) (UniProt P05771); conditions: at 500 nM
[16] = biological target: Serine/threonine-protein kinase N2 (Homo sapiens) (UniProt Q16513); conditions: at 500 nM
[17] = biological target: T1, Tyrosine-protein kinase Blk; conditions: at 500 nM
[18] = biological target: Ribosomal protein S6 kinase alpha-6 (Homo sapiens) (UniProt Q9UK32); conditions: at 500 nM
[19] = biological target: NUAK family SNF1-like kinase 2 (Homo sapiens) (UniProt Q9H093); conditions: at 500 nM
[20] = biological target: Serine/threonine-protein kinase WNK2 (Homo sapiens) (UniProt Q9Y3S1); conditions: at 1 µM
[21] = biological target: Serine/threonine-protein kinase WNK4 (Homo sapiens) (UniProt Q96J92); conditions: at 1 µM
[22] = biological target: Epidermal growth factor receptor (Homo sapiens, UniProt P00533); conditions: at 1 µM
[23] = biological target: Mitotic checkpoint serine/threonine-protein kinase BUB1 (Homo sapiens) (UniProt O43683); conditions: at 1 µM
[24] = test system: Tyrosine-protein kinase ABL1 (Homo sapiens), P00519 [Q252H]; conditions: at 1 µM
[25] = biological target: Inhibitor of nuclear factor kappa-B kinase subunit alpha (Homo sapiens) (UniProt O15111); conditions: at 1 µM
[26] = biological target: Vascular endothelial growth factor receptor 1 (Homo sapiens, UniProt P17948); conditions: at 20 µM
[27] = biological target: Sodium-dependent dopamine transporter (Homo sapiens, UniProt Q01959); conditions: at 10 µM
[28] = biological target: Protein kinase C alpha type (Homo sapiens) (UniProt P17252); conditions: at 1 µM
[29] = biological target: Rhodopsin kinase GRK7 (Homo sapiens) (UniProt Q8WTQ7); conditions: at 1 µM
[30] = biological target: Protein kinase C epsilon type (Homo sapiens) (UniProt Q02156); conditions: at 1 µM
[31] = biological target: Proto-oncogene tyrosine-protein kinase receptor Ret (Homo sapiens) (UniProt P07949); conditions: at 3 µM
[32] = biological target: Ribosomal protein S6 kinase alpha-1 (Homo sapiens) (UniProt Q15418); conditions: at 1 µM
[33] = biological target: cAMP-dependent protein kinase catalytic subunit alpha (Homo sapiens, UniProt P17612); conditions: at 10 µM
[34] = biological target: cAMP-dependent protein kinase catalytic subunit beta (Homo sapiens) (UniProt P22694); conditions: at 10 µM
[35] = biological target: Tyrosine-protein kinase JAK3 (Homo sapiens) (UniProt P52333); conditions: at 10 µM
[36] = biological target: Alpha-2C adrenergic receptor (Homo sapiens, UniProt P18825); conditions: at 1 µM
[37] = biological target: Histamine H3 receptor (Homo sapiens, UniProt Q9Y5N1); conditions: at 1 µM
[38] = biological target: Alpha-1D adrenergic receptor (Homo sapiens, UniProt P25100); conditions: at 1 µM
[39] = biological target: 5'-AMP-activated protein kinase catalytic subunit alpha-1 (Homo sapiens, UniProt Q13131); conditions: at 10 µM
[40] = biological target: Muscarinic acetylcholine receptor M4 (Homo sapiens) (UniProt P08173); conditions: at 10 µM
[41] = biological target: Interferon-induced, double-stranded RNA-activated protein kinase (Homo sapiens) (UniProt P19525); conditions: at 1 µM
[42] = biological target: Serine/threonine-protein kinase 38-like (Homo sapiens, UniProt Q9Y2H1); conditions: at 1 µM
[43] = biological target: Serine/threonine-protein kinase Nek1 (Homo sapiens) (UniProt Q96PY6); conditions: at 1 µM
[44] = biological target: Mitogen-activated protein kinase kinase kinase 7 (Homo sapiens) (UniProt O43318); conditions: at 0.1 µM
[45] = test system: Receptor-type tyrosine-protein kinase FLT3 (Homo sapiens), P36888 [K663Q]; conditions: at 1 µM
[46] = biological target: Phosphatidylinositol 3-kinase C2 domain-containing subunit gamma (Homo sapiens) (UniProt O75747); conditions: at 10 µM
[47] = biological target: SWI/SNF-related matrix-associated actin-dependent regulator of chromatin subfamily A member 4 (Homo sapiens) (UniProt P51532)
[48] = biological target: Protein polybromo-1 (Homo sapiens) (UniProt Q86U86)
[49] = biological target: Phosphatidylinositol 4,5-bisphosphate 3-kinase catalytic subunit gamma isoform (Homo sapiens, UniProt P48736); conditions: at 1 µM
[50] = biological target: Phosphatidylinositol 4-phosphate 3-kinase C2 domain-containing subunit beta (Homo sapiens) (UniProt O00750); conditions: at 1 µM
[51] = biological target: Phosphatidylinositol 3-kinase catalytic subunit type 3 (Homo sapiens) (UniProt Q8NEB9); conditions: at 1 µM
[52] = biological target: T3, High affinity nerve growth factor receptor (Homo sapiens, UniProt P04629); conditions: at 10 µM
[53] = biological target: Angiopoietin-1 receptor (Homo sapiens) (UniProt Q02763); conditions: at 10 µM
[54] = biological target: Serine/threonine-protein kinase 10 (Homo sapiens) (UniProt O94804); conditions: at 10 µM
[55] = biological target: BDNF/NT-3 growth factors receptor (Homo sapiens) (UniProt Q16620); conditions: at 10 µM
[56] = biological target: Platelet-derived growth factor receptor beta (Homo sapiens, UniProt P09619); conditions: at 10 µM
[57] = biological target: Muscle, skeletal receptor tyrosine-protein kinase (Homo sapiens) (UniProt O15146); conditions: at 10 µM
[58] = biological target: Aurora kinase B (Homo sapiens, UniProt Q96GD4); conditions: at 10 µM
[59] = biological target: T1, Tyrosine-protein kinase Blk; conditions: at 10 µM; remark: listed apart in the source
[60] = biological target: MAP kinase-interacting serine/threonine-protein kinase 2 (Homo sapiens, UniProt Q9HBH9); conditions: at 10 µM
[61] = biological target: Tyrosine-protein kinase FRK (Homo sapiens, UniProt P42685); conditions: at 10 µM
[62] = biological target: Receptor-type tyrosine-protein kinase FLT3 (Homo sapiens, UniProt P36888); conditions: at 10 µM
[63] = biological target: Ephrin type-A receptor 3 (Homo sapiens) (UniProt P29320); conditions: at 10 µM
[64] = biological target: NT-3 growth factor receptor (Homo sapiens, UniProt Q16288); conditions: at 10 µM
[65] = biological target: Mast/stem cell growth factor receptor Kit (Homo sapiens, UniProt P10721); conditions: at 10 µM
[66] = biological target: Macrophage colony-stimulating factor 1 receptor (Homo sapiens) (UniProt P07333); conditions: at 10 µM
[67] = biological target: T2, Leucine-rich repeat serine/threonine-protein kinase 2; conditions: at 1 µM
[68] = biological target: Cyclin-dependent kinase 4 (Homo sapiens) (UniProt P11802); conditions: at 1 µM
[69] = test system: Receptor-type tyrosine-protein kinase FLT3 (Homo sapiens), P36888 [D835V]; conditions: at 1 µM
[70] = biological target: T3, High affinity nerve growth factor receptor; conditions: at 1 µM
[71] = test system: Phosphatidylinositol 4,5-bisphosphate 3-kinase catalytic subunit alpha isoform (Homo sapiens), P42336 [Q546K]; conditions: at 1 µM
[72] = biological target: Mitogen-activated protein kinase 14 (Homo sapiens, UniProt Q16539); conditions: at 1 µM
[73] = biological target: Serine/threonine-protein kinase TAO3 (Homo sapiens) (UniProt Q9H2K8); conditions: at 1 µM
[74] = biological target: G protein-coupled receptor kinase 3 (Homo sapiens) (UniProt P35626); conditions: at 1 µM
[75] = biological target: Cyclin-G-associated kinase (Homo sapiens) (UniProt O14976)

Compound: N#Cc1ccc(Nc2ccc3[nH]c(=O)[nH]c3c2)c(Cl)c1
- % of inhibition [1]: 21.3%
- % of control [2]: 41%
- % of control [3]: 32%

Compound: CC(=O)C1=C(C)N(c2cccc(C(F)(F)F)c2)C(=O)N[C@@H]1c1ccc(C#N)nc1 [BAY-678]
- % of control [4]: 33.5%

Compound: Cc1c(C(=O)O)cc(-c2ccc(C3CCNCC3)cc2)c2ccc(-c3ccc(C(F)(F)F)cc3)cc12
- % of control [5]: 68%
- % of control [6]: 69%
- % of control [7]: 70%

Compound: N#CC1(c2ccccn2)CCN(Cc2cc(C(=O)O)c(=O)n3ccccc23)CC1 [MSD-M1PAM]
- % of control [8]: 41%
- % of control [9]: 49%
- % of control [10]: 36%

Compound: CCOc1cc(N2CCC(O)CC2)ccc1Nc1ncc2c(n1)N(C1CCCC1)CCC(=O)N2C
- % of control [11]: 4.1%

Compound: CN(C)C(=O)/C(C#N)=C/c1ccc(-c2nc3cnc4[nH]ccc4c3n2C2CCCCC2)o1
- % of inhibition [12]: 66%
- % of inhibition [13]: 74%
- % of inhibition [14]: 51%
- % of inhibition [15]: 69%
- % of inhibition [16]: 52%
- % of inhibition [17]: 43%
- % of inhibition [18]: 60%
- % of inhibition [19]: 61%

Compound: NS(=O)(=O)c1cc(NC(=O)Cc2ccccc2)ccc1Oc1cccc(Cl)c1 [BAY-1797]
- % of control [20]: 0%
- % of control [21]: 0%
- % of control [22]: 47%
- % of control [23]: 1.6%

Compound: CN(C)C(=O)Cn1cc(-c2nc([C@@](C)(c3ccc(-c4cnc(N)nc4)cc3)C3CC3)no2)cn1
- % of control [24]: 0%
- % of control [25]: 0%
- % of inhibition [26]: 64%
- % of inhibition [27]: 61%
- % of control [28]: 0%
- % of control [29]: 0%
- % of control [30]: 44%
- % of control [31]: 56%

Compound: CC1=C(C(=O)Nc2cc3cn[nH]c3cc2F)C(c2ccc(C(F)(F)F)cc2)CC(=O)N1 (stereo not given)
- % of control [32]: 20%
- % of control [33]: 4.2%
- % of control [34]: 6.4%
- % of control [35]: 3.2%

Compound: COc1cc2c(NC3CCN(C(C)C)CC3)nc(N3CCC(F)(F)CC3)nc2cc1OCCCN1CCCC1
- % of control [36]: 67%
- % of control [37]: 93%
- % of control [38]: 59%
- % of inhibition [39]: 10%

Compound: O=C1CCc2cc(Nc3cc(OC4CCOCC4)c([N+](=O)[O-])cc3Cl)ccc2N1
- % of inhibition [40]: 49%
- % of control [41]: 46%
- % of control [42]: 41%
- % of control [43]: 40%

Compound: CNc1nc(Nc2cnn([C@H]3CCN(C4COC4)C[C@@H]3F)c2Cl)ncc1C(F)(F)F
- % of control [44]: < 50%

Compound: O=C(Nc1ccc(Oc2ccc(F)cc2)cc1)N1CCc2ncccc2[C@H]1c1ccc(F)cc1
- % of control [45]: 41%

Compound: CS(=O)(=O)N1CCN(Cc2cc3nc(-c4cccc5[nH]ncc45)nc(N4CCOCC4)c3s2)CC1
- % of control [46]: 27%

Compound: O=C(/C=C/N1C[C@H]2C[C@@H]1CN2c1ccccn1)c1ccccc1O
- dTm [47]: 7 K
- dTm [48]: 9.1 K

Compound: Cc1nc(-c2cn3c(n2)-c2ccc(-c4cnn(C(C)(C)C(N)=O)c4)cc2OCC3)n(C(C)C)n1
- % of control [49]: 90.6%
- % of control [50]: 80.4%
- % of control [51]: 69.9%

Compound: CCOc1ccn(-c2ccc(F)cc2)c(=O)c1C(=O)Nc1ccc(Oc2ccnc(N)c2Cl)c(F)c1 [BMS-777607]
- % of control [52]: 0.55%
- % of control [53]: 0.15%
- % of control [54]: 0%
- % of control [55]: 0.1%
- % of control [56]: 0.7%
- % of control [57]: 0%
- % of control [58]: 0%
- % of control [59]: 0.35%
- % of control [60]: 0.75%
- % of control [61]: 0.55%
- % of control [62]: 0.05%
- % of control [63]: 0.1%
- % of control [64]: 0.1%
- % of control [65]: 0%
- % of control [66]: 0.8%

Compound: COc1cccc(CNC(=O)c2nc3scc(COCc4ccc(C(=O)O)cc4)c3c(=O)[nH]2)c1
- % of control [67]: 43%
- % of control [68]: 43.5%
- % of control [69]: 44.2%
- % of control [70]: 46.7%

Compound: C[C@H](c1ccc(F)cc1)N(Cc1cccc(C(=O)O)c1)C(=O)c1cnc2ccccc2c1 [PF-05105679]
- % of control [71]: 42%
- % of control [72]: 0%
- % of control [73]: 41%
- % of control [74]: 40%

Compound: COc1cc(Nc2ccnc3ccc(Br)cc23)cc(OC)c1OC
- dTM [75]: 7.7 K
